The results in this text go back to patent US12226424B2, “Target protein degradation compounds, their anti-tumor use, their intermediates and use of intermediates” (ShanghaiTech University, priority 2018, dated 2025).

For this assay, the system named is HEK293 cells. Kind of assay: Proliferation inhibition (IC50) on non-BCR-ABL-positive HEK293 cells. The following applies: Homo sapiens, HEK293, read-out: IC50 (nM)/HEK293 cell line.

Where only a bound is given, the exact number is not on record here.

With `Cc1nc(Nc2ncc(C(=O)Nc3c(C)cccc3Cl)s2)cc(N2CCN(CCO)CC2)n1` [Dasatinib, reference compound], the IC50 is above 10000 nM.
